Data taken from PubChem BioAssay AID504842 (National Center for Advancing Translational Sciences (NCATS), 2011).
Where “and” joins values, the source holds several entries; their conditions need not be identical. Equal values may be shown once. This is a selection; strong and weak results do not stand in their true shares. Calls of active or inactive are those of the source. The call rests on the fitted dose curve; in most records, active means well fitted inhibition curve with a large enough effect; inconclusive means small, poorly fitted or top-dose-only effect; inactive means flat fitted curve, though single readings scatter.

System: Chaperonin Mm-Cpn (Methanococcus maripaludis)
Assay: Inhibitors of TCP-1 ring complex (TRiC) of Methanococcus maripaludis (MmCpn): qHTS; further: nearly all actives have a fitted effect of over 80% in size
Settings: purified Mm-Cpn ATPase, ADP Transcreener TR-FRET; at 76.9 µM (top of the series)
Source text: The eukaryotic chaperonin TRiC (for TCP-1 ring complex) is an essential and conserved chaperone required for the folding and activation of 10-15% of the proteins encoded by the human genome. […] The TRiC complex consist of two stacked 7-9 membered rings, each containing a central cavity. Substrates are folded within the cavity in an ATP-dependent manner. TRiC is a complex of eight different, essential proteins. As each of the genes encoding the eight subunits is essential for cell viability and no protocol has been developed to over-express this enzyme to high levels. That is why several groups studying the TRiC chaperonin have turned to the archaeal homolog of TRiC, Methanococcus maripaludis (Mm-CPN), and have used this enzyme as a model system for the study of the type II chaperonin family. Small molecule inhibitors of the Mm-CPN enzyme would be extremely useful to study the mechanism of chaperonin activity. Importantly, TRiC and Mm-CPN both require ATP hydrolysis for function. Furthermore, the ATP binding sites are highly conserved among these type II chaperonins. This provides us with an easy, well tested and straightforward assay to identify inhibitors of chaperonin activity. The Mm-CPN assay was developed in 1536-well plate format using the HTRF Transcreener ADP assay kit (Cisbio, Bedford, MA). This assay applied the time resolved fluorescence resonance energy transfer (TR-FRET) principle. ATP in the presence of Mm-CPN is converted to ADP + Pi. An antibody labeled with Eu3+-Cryptate specific and bound to ADP labeled with […] (d2) competes with the unlabeled ADP generated by Mm-CPN. The resulting TR-FRET signal is inversely proportional to the concentration of ADP in the sample. In this assay a reduction in TR-FRET signal is observed with ATP turnover. NIH Chemical Genomics Center [NCGC] NIH Molecular Libraries Probe Centers Network [MLPCN] MLPCN Grant: DA030554-01A1 Assay Submitter (PI): Judith Frydman, Stanford University
Purified Mm-CPN was supplied by the laboratory of Dr. Judith Frydman. Protein samples were stored at -80C as single use aliquots. Protein was thawed in ambient temperature water bath and placed on ice once thawed. Buffer was prepared fresh day of screen. The buffer composition below was used to prepare the working solution of the Mm-CPN protein and ATP substrate. The buffer is comprised of 30 mM TRIS pH 7.4, 100mM KCl, 5mM MgCl2, and 1mM DTT. A final concentration of 25nM Mm-CPN and 10uM ATP per well were used in the screen. Instructions according to the manufacturer were followed for the ADP Transcreener kit. Used 1536 well Greiner white, medium binding (MB), solid bottom plates. Plates were read on the PerkinElmer EnVision plate reader using Excitation = 320 nm and Emission = […], 665 nm. Protocol- 1.Dispense 1.5ul per well of working [Mm-CPN] = 50nM (or 75 ng / well) 2.Spin plate at 1000 rpm for 30 seconds 3.23nl of compound transferred per well 4.Incubate at 37degC for 10 minutes 5.Dispense 1.5ul per well of working [ATP] = 20uM 6.Incubate at 37degC for 30 minutes 7.Dispense 3ul per well of Anti-ADP Cryptate / ADP-d2 mix (prepared as instructed by Cisbio) 8.Incubate at ambient for 30 minutes 9.Read using EnVision
On the % scale 0 is the no-effect control and ±100 the full control effect.

Compound	activity, negative = inhibition
COc1ccc(N/C(=N/P(=O)(N2CCOCC2)N2CCOCC2)N2CCOCC2)cc1	inactive: 2.54%
Cc1c2c(nc3ccccc13)SC(C(Cl)Cl)C2 (stereo not given)	inactive: -1.49%
Cc1cc(=O)[nH]c(N[N+](=O)[O-])n1	inactive: 0.912%
O=C(OC1CN2CCC1CC2)C12CC3CC(CC(C3)C1)C2 (stereo not given)	inactive: -3.49%
COc1cc(I)ccc1[As](=O)(O)O	inactive: 3.59%
COc1ccc2nc(NP(=O)(c3ccccc3)c3ccccc3)sc2c1	inactive: -6.09%
Cc1c2non([O-])c-2c(C)[n+](=O)[n+]1[O-]	inactive: 2.18%
O=C(NC(Sc1ccncn1)C(Cl)(Cl)Cl)c1ccccc1 (stereo not given)	inactive: 0.909%
Oc1ccccc1CNc1ccccn1	inactive: 1.01%
CC(C)CC(=O)NC(Sc1ccc(Cl)cc1)C(Cl)(Cl)Cl (stereo not given)	inactive: 1.45%
Nc1cc(N)c2nonc2c1[N+](=O)[O-]	inactive: 2.47%
Cc1ccc(N/C(=N/P(=O)(N2CCOCC2)N2CCOCC2)N2CCOCC2)cc1	inactive: 0.44%
CN(C(=O)Cc1ccc(Cl)c(Cl)c1)[C@H]1CCCC[C@H]1N1CCCC1	inactive: -0.545%
NC(=O)c1cc([N+](=O)[O-])cc([N+](=O)[O-])c1N	inactive: -0.0061%
Clc1ccc(Cl)c(NC2=NCC(CBr)S2)c1 (stereo not given)	inactive: -4.09%
CN1CCCC(OC(=O)C(c2ccccc2)c2ccccc2)C1 (stereo not given)	inactive: 1.75%
Cc1ccc(OP(=O)(Nc2nccs2)Oc2ccc(C)cc2)cc1	inactive: 2.31%
COc1ccccc1OP(=O)(Nc1ccc(C)cn1)Oc1ccccc1OC	inactive: 0.361%
O=[N+]([O-])c1cc([N+](=O)[O-])c(CCN2CCOCC2)c([N+](=O)[O-])c1	inactive: -2.91%
Nc1cccc2ccc([As](=O)(O)O)cc12	inactive: -5.47%
CCN(N=Nc1nonc1N)c1nonc1N	inactive: -0.565%
O=P(Nc1nc2ccc(Cl)cc2s1)(c1ccccc1)c1ccccc1	inactive: -2.58%
O=C(O)c1ccccc1[As](=O)(O)O	inactive: 1.04%
CC(=O)Nc1ccc([As](=O)(O)O)cc1	inactive: -11.7%
Cc1ccc(NP(=O)(Oc2ccccc2F)Oc2ccccc2F)nc1	inactive: -0.306%
CCOP(=O)(Nc1ccccc1)OCC	inactive: -0.384% and inactive: -2.16%
Cc1cc(SC(NC(=O)c2ccc(F)cc2)C(Cl)(Cl)Cl)ncn1 (stereo not given)	inactive: 0.21%

Compound	activity, negative = inhibition
O=[N+]([O-])c1ncn(CCn2ncnc2[N+](=O)[O-])n1	inactive: 4.53%
CC(C)(C)C(=O)NC(Sc1ccncn1)C(Cl)(Cl)Cl (stereo not given)	inactive: 0.179%
O=C(O)CNc1ccc([As](=O)(O)O)cc1	inactive: 1.64%
O=[N+]([O-])c1cccc(NC2=NCC(CBr)S2)c1 (stereo not given)	inactive: 2.46%
O=C(Nc1cc([As](=O)(O)O)ccc1O)c1ccccc1	inactive: -0.157%
C[N+]1=C2C=CC=CC=C2SC12C([N+](=O)[O-])=CC([N+](=O)[O-])=C[C-]2[N+](=O)[O-] (stereo not given)	inactive: -1.43%
Nc1ccc([As](=O)(O)c2ccc(N)cc2)cc1	inactive: -3.9%
CC1CCN(C(=O)Oc2c(Cl)cc(Cl)c3cccnc23)CC1	inactive: -0.857%
CN(C)C(=O)OCCc1n(C)cc[n+]1C	inactive: -1.57%
CC(C)=N/N=C(\N)N[N+](=O)[O-]	inactive: -24.2%
COc1ccc(C2=NCC(CBr)S2)cc1 (stereo not given)	inactive: -5.36%
CCc1nc2c(n1)c1c(non1O)c1c2no[n+]1[O-]	inactive: -2.21%
O=[N+]([O-])c1cc([N+](=O)[O-])c(CCNc2ccccc2)c([N+](=O)[O-])c1	inactive: -1.9%
Cc1ccc(NP(=O)(Oc2ccccc2)Oc2ccccc2)nc1	inactive: 1.11%
O=[N+]([O-])c1cccc2n[nH]nc12	inactive: -1.15%
CC(=O)N1C2C3N(C(C)=O)C1C1N(C(C)=O)C(C(N1C(C)=O)N3C(C)=O)N2C(C)=O	inactive: -2.86%
CC(C)C(=O)NC(Sc1ccccc1)C(Cl)(Cl)Cl (stereo not given)	inactive: -0.585%
O=P(Nc1nccs1)(c1ccccc1)c1ccccc1	inactive: -0.582%
c1nnnn1CCn1cnnn1	inactive: -1.23%
O=[As](O)(c1ccccc1)c1ccc(O)cc1	inactive: 1.52%
O=[N+]([O-])c1ccc(O)c(/C=N/Nc2ccc([N+](=O)[O-])cc2[N+](=O)[O-])c1	inactive: -0.859%
CC(=O)NC(SC(=S)N(C)C)C(Cl)(Cl)Cl (stereo not given)	inactive: -0.0282%
O=[N+]([O-])c1ncn(CCn2cnc([N+](=O)[O-])n2)n1	inactive: -2.77%
O=C(OC1CN2CCC1CC2)c1cccc(Cl)c1 (stereo not given)	inactive: 1.78%
Nc1ccc([As](=O)(O)c2ccc([N+](=O)[O-])cc2)cc1	inactive: 2.12%
C(Cc1nn[nH]n1)Cc1nn[nH]n1	inactive: -0.719%
O=P(Nc1ccccn1)(c1ccc(Br)cc1)c1ccc(Br)cc1	inactive: 1.76%

Compound	activity, negative = inhibition
CN(C)C1(CNC(=O)c2ccc(Cl)c(S(N)(=O)=O)c2)CCCCC1	inactive: 0.275%
C[C@H]1OP(=O)(Oc2ccccc2)[C@H](O)[C@H](O)[C@H]1N=[N+]=[N-] (stereo not given in full)	inactive: 1.13%
O=P(Nc1nc2ccccc2s1)(c1ccccc1)c1ccccc1	inactive: -1.15%
CCC(=O)N1C2C3N(C(=O)CC)C1C1N(C(=O)CC)C(C(N1C(=O)CC)N3C(=O)CC)N2C(=O)CC	inactive: -0.419%
O=C(OC1CN2CCC1CC2)c1ccccc1 (stereo not given)	inactive: -0.822%
CC(=O)NC(SC(=S)N(CC(C)C)CC(C)C)C(Cl)(Cl)Cl (stereo not given)	inactive: 0.233%
Cc1ccc(OP(=O)(Nc2ccccn2)Oc2ccc(C)cc2)cc1	inactive: -2.04%
COC(=O)c1cc2c(s1)N=C(c1ccccc1)N(C)P2(=O)N1CCOCC1 (stereo not given)	inactive: -0.422%
CN(C)C(=O)Oc1noc2ccccc12	inactive: -3.64%
O=c1c2cc([N+](=O)[O-])ccc2[nH]c2c([N+](=O)[O-])cc([N+](=O)[O-])cc12	inactive: -5.9%
Cc1ccccc1OP(=O)(Nc1ccccn1)Oc1ccccc1C	inactive: -4.49%
CC(NC(=O)COC(=O)C(O)(c1ccccc1)c1ccccc1)c1ccccc1 (stereo not given)	inactive: -0.232%
Cc1ccc(NP(=O)(Oc2cccc(C)c2)Oc2cccc(C)c2)nc1	inactive: -0.601%
CCOC(=O)NC(Sc1ccccc1)C(Cl)(Cl)Cl (stereo not given)	inactive: 0.522%
c1ccc(-c2nn[nH]n2)c(-c2nn[nH]n2)c1	inactive: -2.3%
CCNC(=S)/N=C(\N)N[N+](=O)[O-]	inactive: 0.84%
O=C(NC1CCS(=O)(=O)C1)NP(=S)(Oc1ccccc1)Oc1ccccc1 (stereo not given)	inactive: 2.12%
C[C@@H]1C=CCP(=O)(Oc2ccccc2)O1 (stereo not given in full)	inactive: 0.771%
C[C@H]1OP(=O)(Oc2ccccc2)C[C@@H]2O[C@@H]21 (stereo not given in full)	inactive: -0.31%
Cc1ccccc1CN(C)C(=O)COC(=O)C(O)(c1ccccc1)c1ccccc1	inactive: 0.769%
CC(=O)c1ccc(N2CC2c2ccncc2)cc1 (stereo not given)	inactive: -1.41%
CC(=O)Nc1ccc(Oc2c([N+](=O)[O-])cc([N+](=O)[O-])cc2[N+](=O)[O-])cc1	inactive: 0.352%
CC(=O)Nc1ccc([As](=O)(O)O)c(O)c1	inactive: 4.48%
CCOc1ccc(C2=NCC(CBr)S2)cc1 (stereo not given)	inactive: -5.13%
O=P1(Nc2nc3ccc(Cl)cc3s2)COc2ccccc2O1 (stereo not given)	inactive: 0.511%
CC(C)(C)C(=O)NC(Sc1ccccc1)C(Cl)(Cl)Cl (stereo not given)	inactive: 0.314%
